Measured values as given in patent US20240254255A1 (Regeneron, published 2024).

Biological target: T1, hErbB2-MMH (human HER2 ectodomain with C-terminal myc-myc-hexahistidine tag) (human, UniProt P04626 23-652)
T1 construct: also called Her2 ECD; Her2 protein
Assay: SPR (MASS-2), ADC captured on anti-human Fc, hErbB2-MMH in solution, 25 C

B1: BsAb1-Tubulysin 1A-LP (Anti HER2 BsAb1-PEG3-N3-Tubulysin 1A-LP) (bispecific antibody, human IgG4 S228P, kappa)
heavy 1: EVQLVESGGGLAQPGGSLRLSCAASGFSISDYEIHWVRQVPGKGLEWVSGIGSAGNTYYPGAVKGRFTISRENAKNSLYLQVNSLTVGDTAVYYCARVWSPLYYFGLDVWGQGTTVTVSSASTKGPSVFPLAPCSRSTSESTAALGCLVKDYFPEPVTVSWNSGALTSGVHTFPAVLQSSGLYSLSSVVTVPSSSLGTKTYTCNVDHKPSNTKVDKRVESKYGPPCPPCPAPEFLGGPSVFLFPPKPKDTLMISRTPEVTCVVVDVSQEDPEVQFNWYVDGVEVHNAKTKPREEQFNSTYRVVSVLTVLHQDWLNGKEYKCKVSNKGLPSSIEKTISKAKGQPREPQVYTLPPSQEEMTKNQVSLTCLVKGFYPSDIAVEWESNGQPENNYKTTPPVLDSDGSFFLYSRLTVDKSRWQEGNVFSCSVMHEALHNRFTQKSLSLSPGK
heavy 2: not shown
light: not shown
modifications: deglycosylated (PNGase F); Q295 carries azido-PEG3-amine clicked to Tubulysin 1A-LP
notes: Site-specific antibody-drug conjugate of BsAb1; also called HER2xHER2-M830
Kd: 0.626 nM
